Tested on: extracellular superoxide anion production of MKN-45 cells
Experiment: extracellular superoxide anion production of MKN-45 cells (Cu SOD bell curve shift)
Type: cell-based
Conditions: lower epothilone concentration; malvidin chloride, artemisinin; 150 mM 3-AT, 8 hours

COc1cc(-c2[o+]c3cc(O)cc(O)c3cc2O)cc(OC)c1O
effect on superoxide anion production: did not demonstrate any effect

Source: US20160220542A1, “SYNERGISTIC ACTIVITY OF MODULATORS OF THE NO METABOLISM AND OF NADPH OXIDASE IN THE SENSITISATION OF TUMOR CELLS” (Universitaetsklinikum Freiburg, priority 2010, published 2016)
